Experimental data taken from patent US20230295106A1 (priority 2019, published 2023).

Sequences of proteins named here, by UniProt entry; tags and fusion partners are left off.
UniProt P28223, whole entry: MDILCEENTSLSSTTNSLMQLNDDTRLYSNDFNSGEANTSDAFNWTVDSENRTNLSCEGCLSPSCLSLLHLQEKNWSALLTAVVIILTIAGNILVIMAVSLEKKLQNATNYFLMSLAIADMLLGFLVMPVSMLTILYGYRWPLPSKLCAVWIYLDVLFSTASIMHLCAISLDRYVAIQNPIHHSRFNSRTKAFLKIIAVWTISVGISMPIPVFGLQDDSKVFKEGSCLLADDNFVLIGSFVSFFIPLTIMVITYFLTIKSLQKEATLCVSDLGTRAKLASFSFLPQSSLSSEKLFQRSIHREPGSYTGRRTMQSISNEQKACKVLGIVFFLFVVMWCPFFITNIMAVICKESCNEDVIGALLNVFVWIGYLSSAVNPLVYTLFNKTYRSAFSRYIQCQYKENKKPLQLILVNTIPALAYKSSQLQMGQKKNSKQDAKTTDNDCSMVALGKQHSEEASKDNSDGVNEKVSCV

Legend:
5-HT2A [1] = target: T1, 5-HT2A (Homo sapiens, UniProt P28223); assay: Serotonin 5-HT2A in vitro radioligand binding competition assay ([3H]-DOI); conditions: read-out: 5-HT2A Radioligand Binding Activity; competition with [3H]-DOI, membrane extracts
5-HT2A [2] = target: T1, 5-HT2A; assay: Serotonin 5-HT2A in vitro cellular IPOne agonism assay (HTRF); format: cell-based; conditions: read-out: 5-HT2A IPOne Agonism Activity; CHO-K1 cells, 60 min at 37° C.
rat cortical neurons = assay: Neurite outgrowth in primary neuronal cultures assay; design: key to the marks not given beside the values; conditions: 72 h, vs DMSO control, at 10 μM or less

CCN(CC)C(=O)C1C=C(c2c(OC)cccc2OC)CN(C)C1 (single isomer, unassigned) [Compound 3]
IC50 (5-HT2A [1]): 1 to 10 µM | EC50 (5-HT2A [2]): 101 to 1000 nM | Increase in Neurite Length (rat cortical neurons): B | Increase in Neurite Number (rat cortical neurons): B

CCN(CC)C(=O)C1C=C(c2c(OC)cccc2OC)CN(C)C1 (single isomer, unassigned) [Compound 4]
IC50 (5-HT2A [1]): 1 to 10 µM | EC50 (5-HT2A [2]): 101 to 1000 nM | Increase in Neurite Length (rat cortical neurons): A | Increase in Neurite Number (rat cortical neurons): A
